# Measured affinities in a library of Ab-95 light chain variants

All variants were tested on one target, the spike HR2 peptide PDVDLGDISGINAS (SARS-CoV-2).

The variants keep the heavy chain, the linker and the frameworks of Ab-95 (scFv order VH, a 15-residue (Gly4Ser)3 linker, VL).
VH: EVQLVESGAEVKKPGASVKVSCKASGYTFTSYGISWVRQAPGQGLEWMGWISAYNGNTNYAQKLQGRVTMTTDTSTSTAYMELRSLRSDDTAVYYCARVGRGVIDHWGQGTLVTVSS
VL: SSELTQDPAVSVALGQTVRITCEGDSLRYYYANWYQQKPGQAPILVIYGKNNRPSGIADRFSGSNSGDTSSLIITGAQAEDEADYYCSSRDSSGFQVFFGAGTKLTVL

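The starting antibody came from a phage panning campaign against this peptide. Variants in AAYL52 differ from the parent at up to three CDR positions; double and triple changes were sampled at random. The assay is AlphaSeq: two haploid yeast populations carry antibody and antigen on their surface. Binding brings cells together so that they mate, and sequencing counts the barcode pairs among the diploids. The ratio of observed to expected reads was calibrated, replicate by replicate, on BCL2-family standards whose Kd was known from biolayer interferometry. Each pool was mated in three replicate cultures.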

Each variant is given by its three light chain CDRs, as the data file delimits them; those of the parent are EGDSLRYYYAN, GKNNRPS, SSRDSSGFQVF.
Affinities are written as log10 Kd with Kd in nM; a lower number is a better binder.
A pair that was not seen in that replicate is written "n.d."; this usually means weak binding, but a binder can also be missed.
Three control strains display no target. For library AAYL52, 28% of the pairings with them gave a signal, with a median of 3.91 and one signal in twenty below 2.90, so weak values seen in few replicates may be background. The control count says in how many pairings with the empty strains this scFv gave a signal, with their mean in brackets.

CDR-L1 | CDR-L2 | CDR-L3 | log10 Kd (nM) by replicate | signal with controls
EPDSLWYYYAN | GKNNRPS | SSRDSSGFRVF | 4.26 4.19 n.d. | 2/9 (3.96)
EGKSLVAYYAN | GKNNRPS | SSRDSSGFQVF | 2.89 2.69 2.90 | 7/9 (4.10)
EGDSLRYHYAN | GKNNRPS | SSRDSSGFQLS | 3.43 3.12 n.d. | 3/9 (4.44)
EGDSLRYYYAN | GKNNRPD | SSRDFSGVQVF | 3.99 2.57 2.59 | 2/9 (5.53)
EGDSLRYYYAN | GKNNEPS | SSLDSSNFQVF | 2.95 4.43 3.48 | 1/9 (4.16)
EGDSLRYYYAN | GKNIRPS | SSRDSSGNQVF | 3.16 2.80 2.59 | 3/9 (4.24)
MGDSLRYYYAN | GKNNRPS | SWRDSSGFQVF | n.d. n.d. n.d. | 2/9 (4.25)
EGDSLRYYYAN | GKNCRPP | SSSDSSGFQVF | 5.14 n.d. n.d. | 4/9 (3.75)
ELDSLRYYYAN | GKNKMPS | SSRDSSGFQVF | n.d. n.d. n.d. | 0/9
EGDSLREYYAN | GKNNDPS | SHRDSSGFQVF | n.d. 6.03 n.d. | 1/9 (3.07)
EGDWLRSYYAN | GKNNRPS | SSRDSSGIQVF | 4.53 n.d. 3.23 | 4/9 (3.69)
EGDSLEYYYAT | GKNNRPS | SSRDSSVFQVF | 5.20 4.74 n.d. | 3/9 (4.62)
EGDSLRYYYAN | GKNNRPS | QKRDSSGFSVF | n.d. n.d. n.d. | 3/9 (3.84)
EQDSLRYYYAN | GKNYRPS | ISRDSSGFQVF | n.d. n.d. n.d. | 3/9 (3.38)
EGDSLRYYYAV | GKNNRPS | PSRDSSGFQVF | n.d. n.d. n.d. | 2/9 (4.43)
EGDSLRYYYAN | GKPNRPS | SSRVSSGFQVI | 3.06 3.40 4.42 | 6/9 (3.45)
YGDSLRYYYAN | MKNNRPS | SSRDSSGFHVF | n.d. 4.10 n.d. | 1/9 (3.03)
EGVSLTYFYAN | GKNNRPS | SSRDSSGFQVF | 4.61 3.17 4.19 | 1/9 (5.41)
EGDSLRYEHAN | GKNNRPK | SSRDSSGFQVF | 2.09 1.93 1.38 | 3/9 (3.28)
EGKSLRYYYAN | GKNNRPQ | SSRDSSGFQWF | 2.49 3.08 2.57 | 0/9
EGQSLRPYPAN | GKNNRPS | SSRDSSGFQVF | 1.81 1.80 1.54 | 2/9 (3.19)
KGDSLRAYYAN | GKNNRPS | SSRDSSKFQVF | 1.88 1.68 1.46 | 3/9 (2.99)
EGDSLRYYYAN | GKMNRPS | SSRDSVGFQVF | n.d. n.d. 4.06 | 0/9
EGDSCRFYYAN | GKNNRPS | VSRDSSGFQVF | 3.01 2.84 n.d. | 0/9
EGDSLRYPYAP | GKNNEPS | SSRDSSGFQVF | 4.23 4.97 n.d. | 4/9 (4.08)
EGDSLRYYYAN | GKNNRPS | RYRDPSGFQVF | n.d. n.d. n.d. | 2/9 (4.10)
EGDSLPYYYAN | GKNNRPS | SKRDDSGFQVF | 2.65 2.55 3.29 | 1/9 (4.72)
EGPSLRYYYAN | GKINRPS | SSRDSSGFQVF | 3.54 3.76 n.d. | 0/9
EGDSLRYYYAN | GKNLRPS | SSRDSTGFQVF | 2.00 1.83 1.41 | 3/9 (4.22)
EGDSLRYYYAN | GKNNRPS | SSRDSEGLQVE | n.d. n.d. n.d. | 0/9
EMDSLRYYYAN | GMNNRPS | SSPDSSGFQVF | n.d. n.d. n.d. | 1/9 (4.37)
EGVSGRYYYAN | GKNVRPS | SSRDSSGFQVF | 2.58 2.82 2.28 | 2/9 (3.63)

Reference: Engelhart et al. 2022, doi:10.1038/s41597-022-01779-4. File: FLAb, binding data.